Biological target: His-tagged (C-terminal hexa-histidine) version of FGF-receptor 1, expressed in transfected HEK293 cells
Test: cell-based or functional assay

Question: “second F3 module of NCAM (recombinant protein corresponding to aminoacids 612-705 of rat NCAM, with two N-terminal vector residues A and G) (from UniProt P13596 612-705)” was tested. Which FGF-receptor phosphorylation (anti-phosphotyrosine immunoblot of His-purified FGF-receptor 1 from transfected HEK293 cells, 20 min stimulation) did it give?
Answer: 150%
